Results taken from the NIST ThermoML archive (doi:10.1016/j.jct.2015.02.007).

Details: 100 kPa, Liquid; for mass density: Vibrating tube method; for speed of sound: Pulse-echo method

OCCOCCOCCOCCO [tetraethylene glycol]
Details	mass density [kg/m3]	speed of sound [m/s]
278.15 K	1135.81	–
283.15 K	1131.85	–
288.15 K	1127.88	1633.1
293.15 K	1123.9	1615.3
298.15 K	1119.92	1599.1
303.15 K	1115.94	1582.9
308.15 K	1111.96	1568.7
313.15 K	1107.98	1553.5
318.15 K	1104.01	1538.5
323.15 K	1100.02	–
328.15 K	1096.04	–
333.15 K	1092.05	–
